Data: patent US12662672B2, “Method of promoting survival and/or function of a motor neuron and related agents, uses and methods” (Agency for Science, Technology and Research, priority 2019, dated 2026)

Tested on: ALS MNs
Experiment: Motor neuron survival assay (ISL1+ MNs) in ALS iPSC-derived MNs
Format: cell-based, human
Conditions: treatment from day 28, NAM 0.5 mM, C12 5 μM, Riluzole 5 μM, Edaravone 100 μM, siRNA 10 pmol
Source text: Cultures were then fixed with 4% PFA on Day 25, 28, 31 and 35 respectively for quantification of motor neuron survival. Fixed cultures were stained with the motor neuron marker ISL1, and cellular nuclei were counterstained with DAPI before imaging on the high content microscope Phenix (Perkin Elmer). Percentage of ISL1+ cells was normalized to total nuclei number. To calculate normalized survival index, the percentage of ISL1+/DAPI at day 25 was arbitrary set as 1.0, and motor neuron survival on later days were in turn normalized to day 25 cultures.
Motor neuron cultures at day 27 were dissociated with Accutase and seeded at 2 million cells per well in a 6-well plate. At day 28, non-targeting siRNA or siRNAs were individually complexed with Lipofectamine RNAiMAX following manufacturer's instructions and added to the motor neuron cultures. For each well, 10 pmol of siRNAs and 8 μl of Lipofectamine RNAiMAX were used. Cells were either harvested for RNA and protein analyses, fixed for immunostaining or metabolic flux analysis were performed 3 days after siRNA transfection.

Structure (SMILES): Nc1nc2ccc(OC(F)(F)F)cc2s1 [Riluzole]
- MN survival (ISL1+ MNs): promoted ALS MN survival
